The text below walks through data of patent publication US12186329B2 (President and Fellows of Harvard College, priority 2018, dated 2025).

Assay [1] deals with T1, TGR5 (Homo sapiens, UniProt Q8TDU6).
T1 sequence (Q8TDU6 1-330): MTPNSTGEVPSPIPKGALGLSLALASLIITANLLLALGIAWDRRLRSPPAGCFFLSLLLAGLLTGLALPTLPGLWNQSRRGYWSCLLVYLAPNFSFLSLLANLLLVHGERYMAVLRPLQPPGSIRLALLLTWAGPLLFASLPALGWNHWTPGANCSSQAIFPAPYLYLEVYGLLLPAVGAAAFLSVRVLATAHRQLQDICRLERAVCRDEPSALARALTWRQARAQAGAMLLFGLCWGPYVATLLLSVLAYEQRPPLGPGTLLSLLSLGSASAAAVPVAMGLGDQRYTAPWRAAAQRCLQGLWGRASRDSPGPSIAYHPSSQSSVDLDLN
The conditions noted are these: for TGR5 activation in HEK293T cells: compared with TDCA. The method, then: (§1) Plasmids and transient transfections. […] For luciferase reporter assays for TGR5 activation, the pGL4.29[luc2P/CRE/Hygro] plasmid (Promega Corporation), and the pGL4.74[hRluc/CMV] plasmid (Promega Corporation) were used at concentration of 2 μg/ml and 0.05 μg/ml of media respectively. […] Plasmid transfection were performed in antibiotic-free media (MEM for HEK293T and RPMI for Matrigel-attached NCI-H716 cells) with 10% FBS. […] Cells were harvested the next day for luciferase assay.
(§2) Luciferase reporter assay. Luminescence was measured using the Dual-Luciferase Reporter Assay System (Promega Corporation) according to manufacturer's instructions. Cells were washed gently with PBS and lysed in PLB from the kit. Matrigel-attached cells were scraped in PLB. […] Luminescence was normalized to Renilla luciferase activity and percentage relative luminescence was calculated compared to DMSO control.

Assay [2] addresses T1, TGR5. The assay can be described thus: TGR5 activation in L-cells (luciferase reporter), dose response. As to conditions: read-out: EC50 of TGR5 activation in L-cells (dose response curve). In kind it is cell-based. Set-up: endogenous in cells; host or cells: NCI-H716 (human intestinal L-cells, ATCC). As for the experimental part: as §1, §2
(In general: Reporter assays use an easily measured gene product as a stand-in for the process of interest.)

Like-named read-outs stand apart in the source and are kept apart here.

One may read the EC50 as the concentration giving half of the maximal effect. On to `C[C@H](CCC(=O)O)[C@H]1CC[C@H]2[C@@H]3[C@H](OS(=O)(=O)O)C[C@@H]4C[C@H](O)CC[C@]4(C)[C@H]3C[C@H](O)[C@]12C` [CA7S, cholic acid-7-sulfate], for which the “TGR5 activation in HEK293T cells” value at TGR5 [1] was “activated human TGR5 in a dose-dependent manner and to a similar extent as TDCA”; at TGR5 [1] (listed as Cholic acid-7-sulfate), “induces TGR5 activation in HEK293T cells”. The half-maximal effective concentration (EC50) at TGR5 [1] (read-out: EC50 of human TGR5 activation, HEK293T cells) came out at 170 nM; on TGR5 [2], 13 nM.
